Columns and labels:
Homo sapiens = organism: Homo sapiens; test: Selectivity ratio of IC50 for C-terminal His-tagged recombinant human CYP21A2deltaH mutant to IC50 for C-terminal His-tagged recombinant human CYP17A1delta19H mutant
Cytochrome P450 2D6 = Cytochrome P450 2D6 (Homo sapiens, UniProt P10635); test: Inhibition of C-terminal His-tagged recombinant human CYP2D6 assessed as decrease in metabolism of dextromethorphan up to 640 nM; type: ADME; conditions: recombinant enzyme

Protein sequences, listed by entry. Tags and fused reporters are not part of them.
UniProt P10635, whole entry: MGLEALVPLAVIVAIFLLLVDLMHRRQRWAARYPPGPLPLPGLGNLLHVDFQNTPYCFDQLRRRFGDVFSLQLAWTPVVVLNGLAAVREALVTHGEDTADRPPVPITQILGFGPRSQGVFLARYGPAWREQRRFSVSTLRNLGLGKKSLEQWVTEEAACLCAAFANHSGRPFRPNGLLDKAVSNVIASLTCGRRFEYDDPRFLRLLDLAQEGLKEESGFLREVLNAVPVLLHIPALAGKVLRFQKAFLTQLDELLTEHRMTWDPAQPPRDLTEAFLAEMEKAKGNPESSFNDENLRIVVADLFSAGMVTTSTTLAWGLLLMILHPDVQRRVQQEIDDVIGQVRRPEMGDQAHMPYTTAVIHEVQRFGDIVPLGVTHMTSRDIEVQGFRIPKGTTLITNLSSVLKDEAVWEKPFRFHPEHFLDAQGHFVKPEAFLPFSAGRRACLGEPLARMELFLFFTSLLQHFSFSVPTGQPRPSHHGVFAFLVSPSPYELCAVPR

Q: With `C[C@]12CCC(=O)C=C1CC[C@@H]1[C@@H]2CC[C@]2(C)C(c3cccnc3)=CC[C@@H]12` as the compound, how does the Ratio IC50 (Homo sapiens) read?
A: 0.11

Q: `C[C@]12CC[C@H](O)CC1=CC[C@@H]1[C@@H]2CC[C@]2(C)C(c3cccnc3)=CC[C@@H]12` [ABIRATERONE] was tested. Which “inhibition (INH)” value (Cytochrome P450 2D6) did it give?
A: Not Active
